This is an account of results in patent US10040781B2, “Tank-binding kinase inhibitor compounds” (Gilead Sciences, Inc., priority 2014, dated 2018).

Sequences of proteins named here, by UniProt entry; tags and fusion partners are left off. A change or cut given only in a name is not applied to a line headed by its entry.
UniProt Q14164: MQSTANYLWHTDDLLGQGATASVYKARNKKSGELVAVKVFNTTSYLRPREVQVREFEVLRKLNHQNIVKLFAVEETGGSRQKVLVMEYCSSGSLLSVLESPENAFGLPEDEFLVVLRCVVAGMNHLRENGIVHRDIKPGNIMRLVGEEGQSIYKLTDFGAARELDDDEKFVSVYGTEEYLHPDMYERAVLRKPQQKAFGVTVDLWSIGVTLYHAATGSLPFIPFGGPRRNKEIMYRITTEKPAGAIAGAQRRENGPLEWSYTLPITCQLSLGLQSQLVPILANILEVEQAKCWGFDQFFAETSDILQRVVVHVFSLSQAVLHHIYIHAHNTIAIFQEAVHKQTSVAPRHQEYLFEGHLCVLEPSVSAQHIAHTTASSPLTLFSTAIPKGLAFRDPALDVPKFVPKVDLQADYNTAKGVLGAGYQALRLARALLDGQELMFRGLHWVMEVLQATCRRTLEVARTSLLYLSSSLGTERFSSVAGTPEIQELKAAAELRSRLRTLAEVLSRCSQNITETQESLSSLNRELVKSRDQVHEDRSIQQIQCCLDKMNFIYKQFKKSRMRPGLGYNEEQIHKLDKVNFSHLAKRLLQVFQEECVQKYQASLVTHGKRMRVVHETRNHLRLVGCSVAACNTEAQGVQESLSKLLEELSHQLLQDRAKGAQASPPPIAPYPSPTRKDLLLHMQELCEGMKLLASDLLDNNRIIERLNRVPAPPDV

The test addresses IKKε (Homo sapiens (Human), UniProt Q14164). In words: IKKε TR-FRET enzymatic assay. It is filed as biochemical. The conditions noted are these: read-out: IKKe IC50. In general terms: Time-resolved FRET reads energy transfer from a long-lived donor to a nearby acceptor.
The mark [1] stands for this setting: TR-FRET, 2×Km ATP, geometric mean of minimum four determinations.

Like-named read-outs stand apart in the source and are kept apart here. A value given as a limit tells only on which side of the number the result lay.

For `C[C@H](O)C(=O)N1CC[C@H](Oc2ccc(-c3ncnc(Nc4ccc(O[C@H]5CCN(C6COC6)C[C@H]5F)cc4)n3)cc2C#N)[C@H](F)C1` [Example 401, 2-(((3R,4S)-3-fluoro-1-((S)-2-hydroxypropanoyl)piperidin-4-yl)oxy)-5-(4-((4-(((3R,4S)-3-fluoro-1-(oxetan-3-yl)piperidin-4-yl)oxy)phenyl)amino)-1,3,5-triazin-2-yl)benzonitrile], under setting [1], the IC50 (commonly the concentration at which inhibition is half-maximal) is 3 nM.
In the case of `N#Cc1cc(-c2ncnc(Nc3ccc4c(c3)OC(F)(F)O4)n2)ccc1OC1CCOCC1` [Example 275, 5-(4-((2,2-difluorobenzo[d][1,3]dioxol-5-yl)amino)-1,3,5-triazin-2-yl)-2-((tetrahydro-2H-pyran-4-yl)oxy)benzonitrile], the IC50 was ≥ 1000 nM.
As to `N#Cc1cc(-c2ncnc(Nc3ccc(N4CCN(C5COC5)CC4)cc3)n2)ccc1OCCc1c[nH]c2ccccc12` [Example 610, 2-(2-(1H-indol-3-yl)ethoxy)-5-(4-((4-(4-(oxetan-3-yl)piperazin-1-yl)phenyl)amino)-1,3,5-triazin-2-yl)benzonitrile], the IC50 was ≥ 1000 nM.
Take `CC(=O)N1CC[C@H](Oc2ccc(-c3ncnc(Nc4ccc(S(C)(=N)=O)cc4)n3)cc2C#N)C(F)(F)C1` (stereo partly shown) [Example 481]: the IC50 under setting [1] is 5 nM.
For `N#Cc1cc(-c2ncnc(Nc3ccc(N4CCN(C5COC5)CC4)cc3)n2)ccc1OC1CCN(C(=O)CO)CC1(F)F` (racemic) [Example 151, 2-((3,3-difluoro-1-(2-hydroxyacetyl)piperidin-4-yl)oxy)-5-(4-((4-(4-(oxetan-3-yl)piperazin-1-yl)phenyl)amino)-1,3,5-triazin-2-yl)benzonitrile], the IC50 is 1 nM.
As for `COc1cc(Nc2ncnc(-c3ccc(O[C@H]4CCN(C(=O)[C@H](C)O)C[C@H]4F)c(C#N)c3)n2)cnc1N1CCN(C2COC2)CC1` [Example 514, 2-(((3R,4S)-3-fluoro-1-((S)-2-hydroxypropanoyl)piperidin-4-yl)oxy)-5-(4-((5-methoxy-6-(4-(oxetan-3-yl)piperazin-1-yl)pyridin-3-yl)amino)-1,3,5-triazin-2-yl)benzonitrile], the IC50 under setting [1] is 3 nM.
For the compound `COc1cc(Nc2ncnc(-c3ccc(OC4CCOCC4)c(C#N)c3)n2)ccc1N1CCN(C)CC1` [Example 4, 5-(4-((3-methoxy-4-(4-methylpiperazin-1-yl)phenyl)amino)-1,3,5-triazin-2-yl)-2-((tetrahydro-2H-pyran-4-yl)oxy)benzonitrile], the IC50 is 1 nM.
`N#Cc1cc(-c2ncnc(Nc3ccc(N4CCN(C5COC5)CC4)cc3)n2)ccc1O[C@H]1CCN(C(=O)[C@@H]2CSC(=O)N2)C[C@H]1F` [Example 530, 2-(((3R,4S)-3-fluoro-1-((R)-2-oxothiazolidine-4-carbonyl)piperidin-4-yl)oxy)-5-(4-((4-(4-(oxetan-3-yl)piperazin-1-yl)phenyl)amino)-1,3,5-triazin-2-yl)benzonitrile]: the IC50 under setting [1] is 2 nM.
Turning to `N#Cc1cc(-c2ncnc(Nc3ccc(N4CCN(C5COC5)CC4)cc3)n2)ccc1O[C@@H]1CCN(C(=O)CO)CC1(F)F` (single isomer, unassigned) [Example 153], the IC50 came out at 1 nM.
For `C[C@H](O)C(=O)N1CC[C@H](Oc2ccc(-c3ncnc(Nc4ccc(N5CCN6CCOC[C@H]6C5)cc4)n3)cc2C#N)[C@H](F)C1` [Example 619, 2-(((3R,4S)-3-fluoro-1-((S)-2-hydroxypropanoyl)piperidin-4-yl)oxy)-5-(4-((4-((R)-hexahydropyrazino[2,1-c][1,4]oxazin-8(1H)-yl)phenyl)amino)-1,3,5-triazin-2-yl)benzonitrile], the IC50 stood at 3 nM.
The same measure, in the same setting: the result for `C[C@H](O)C(=O)N1CC[C@H](Oc2ccc(-c3ncnc(Nc4ccc(N5CC6CCC(C5)O6)cc4)n3)cc2C#N)[C@H](F)C1` [Example 362, 5-(4-((4-(8-oxa-3-azabicyclo[3.2.1]octan-3-yl)phenyl)amino)-1,3,5-triazin-2-yl)-2-(((3R,4S)-3-fluoro-1-((S)-2-hydroxypropanoyl)piperidin-4-yl)oxy)benzonitrile] reads 2 nM; that for `C[C@H](O)C(=O)N1CC[C@H](Oc2ccc(-c3ncnc(Nc4ccc(N5CCN(C6COC6)CC5)c(Cl)c4)n3)cc2C#N)[C@H](F)C1` [Example 378, 5-(4-((3-chloro-4-(4-(oxetan-3-yl)piperazin-1-yl)phenyl)amino)-1,3,5-triazin-2-yl)-2-(((3R,4S)-3-fluoro-1-((S)-2-hydroxypropanoyl)piperidin-4-yl)oxy)benzonitrile], 2 nM.
The same measure, in the same setting: then `N#Cc1cc(-c2ncnc(Nc3ccc(N4CCN(C5COC5)CC4)cc3)n2)ccc1O[C@@H]1CCN(C(=O)CO)C1` [Example 30, (R)-2-((1-(2-hydroxyacetyl)pyrrolidin-3-yl)oxy)-5-(4-((4-(4-(oxetan-3-yl)piperazin-1-yl)phenyl)amino)-1,3,5-triazin-2-yl)benzonitrile], with 14 nM.
Regarding `CC1(C)CN(C(=O)CO)CC[C@H]1Oc1ccc(-c2ncnc(Nc3ccc(N4CCN(C5COC5)CC4)cc3)n2)cc1C#N` (single isomer, unassigned) [Example 176], the IC50 came to 3 nM.
Consider `Cc1n[nH]c(C(=O)N2CC[C@H](Oc3ccc(-c4ncnc(Nc5ccc(N6CCN(C7COC7)CC6)cc5)n4)cc3C#N)[C@H](F)C2)n1` [Example 451, 2-(((3R,4S)-3-fluoro-1-(3-methyl-1H-1,2,4-triazole-5-carbonyl)piperidin-4-yl)oxy)-5-(4-((4-(4-(oxetan-3-yl)piperazin-1-yl)phenyl)amino)-1,3,5-triazin-2-yl)benzonitrile], for which the IC50 under setting [1] was 1 nM.
On to `N#Cc1cc(-c2ncnc(Nc3ccc(N4CCN(C5COC5)CC4)cc3)n2)ccc1O[C@H]1CCN(C(=O)[C@@H]2C[C@H](O)C(=O)N2)C[C@H]1F` [Example 410, 2-(((3R,4S)-3-fluoro-1-((2S,4S)-4-hydroxy-5-oxopyrrolidine-2-carbonyl)piperidin-4-yl)oxy)-5-(4-((4-(4-(oxetan-3-yl)piperazin-1-yl)phenyl)amino)-1,3,5-triazin-2-yl)benzonitrile], for which the IC50 under setting [1] was determined as 2 nM.
Consider `CC1(C)CN(C(=O)CO)CCC1Oc1ccc(-c2ncnc(Nc3ccc(N4CCN(C5COC5)CC4)cc3)n2)cc1C#N` (racemic) [Example 174, 2-((1-(2-hydroxyacetyl)-3,3-dimethylpiperidin-4-yl)oxy)-5-(4-((4-(4-(oxetan-3-yl)piperazin-1-yl)phenyl)amino)-1,3,5-triazin-2-yl)benzonitrile], for which the IC50 was determined as 4 nM.
Turning to `N#Cc1cc(-c2ncnc(Nc3ccc(N4CCN(C5COC5)CC4)cc3)n2)ccc1O[C@H]1CCN(C(=O)[C@@H]2C[C@H](F)C(=O)N2)C[C@H]1F` [Example 406, 2-(((3R,4S)-3-fluoro-1-((2S,4S)-4-fluoro-5-oxopyrrolidine-2-carbonyl)piperidin-4-yl)oxy)-5-(4-((4-(4-(oxetan-3-yl)piperazin-1-yl)phenyl)amino)-1,3,5-triazin-2-yl)benzonitrile], the IC50 under setting [1] is 3 nM.
Still for that read-out and setting: the result for `COc1cc(Nc2ncnc(-c3ccc(O[C@H]4CCN(C(=O)CC#N)C[C@H]4F)c(C#N)c3)n2)ccc1N1CCN(C2COC2)CC1` [Example 558, 2-(((3R,4S)-1-(2-cyanoacetyl)-3-fluoropiperidin-4-yl)oxy)-5-(4-((3-methoxy-4-(4-(oxetan-3-yl)piperazin-1-yl)phenyl)amino)-1,3,5-triazin-2-yl)benzonitrile] reads 2 nM.
